Data reported in patent US20040237845A1, “Stabilized chlorine dioxide as oxidizing agent for use in pulp” (priority 2002, published 2004).

Type: physicochemical

Substance: Sodium Chlorite [stabilized chlorine dioxide]
- expected period of slow release of chlorine dioxide / oxidation of organic material (slurry of Example 1): up to 14 days
- period over which the majority of the active chlorine dioxide is released (slurry treated with a high concentration of stabilized chlorine dioxide): up to 14 days
